Paper PMC10064817, “Absolute oral bioavailability and possible metabolic pathway of panduratin A from Boesenbergia rotunda extract in beagle dogs” (Pharmaceutical Biology, 2023)

Details: dog, in vivo, iv, 1 mg/kg

COc1cc(O)c(C(=O)[C@@H]2[C@H](CC=C(C)C)C(C)=CC[C@H]2c2ccccc2)c(O)c1 [Panduratin A, panduratin A]
Body weight: 12.30 ± 1.21
